## Reported melting point values for industrial, environmental and drug-like chemicals

Data: OPERA 2.9 data sets, kmansouri/OPERA on GitHub.

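The numbers are reported measurements, compiled and curated for the OPERA QSAR suite. A listed value is a point estimate from one report or more. Method and conditions are not stated for these values. Where a salt, mixture or single isomer is drawn, the source does not say that exactly this form was tested. Some entries may be limits or estimates that an upstream database listed as plain numbers.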

The melting point is given in degrees Celsius. "via" names the databases from which the curators took the value.

- CCOC(=O)C(=O)C(C#N)c1ccccc1 (configuration not stated): MP 126.5 °C (via OCHEM)
- Cc1nc(N=C(N)N)nc2ccccc12: MP 340 °C (via OCHEM)
- CC(C)(C)N(NC(=O)c1ccccc1)C(=O)c1ccc(C#N)cc1: MP 200 °C (via OCHEM)
- CCOC(=O)c1c(N=C=S)sc(C)c1C: MP 68 °C (via OCHEM)
- CCOc1ccc(C(=O)O)cc1[N+](=O)[O-]: MP 202 °C (via OCHEM)
- O=C(O)CCCNc1ccccc1[N+](=O)[O-]: MP 117 °C (via OCHEM)
- CCn1cc[nH]c1=S: MP 79 °C (via OCHEM)
- COc1ccccc1CNCCO: MP 66 °C (via OCHEM)
- Cc1nonc1N: MP 57 °C (via OCHEM)
- COc1ccc([N+](=O)[O-])cc1CCl: MP 79 °C (via OCHEM)
- N#CCc1ccccc1OCc1ccccc1: MP 76.5 °C (via OCHEM)
- Nc1nnc(SCc2ccccc2)s1: MP 160 °C (via OCHEM)
- Fc1ccc(C2(c3ccccc3F)CO2)cc1 (configuration not stated): MP 3 °C (via eChemPortal)
- COC(=O)c1cc(C)nc(SC)n1: MP 117 °C (via OCHEM)
- O=C1c2ccccc2S(=O)(=O)N1CCBr: MP 95 °C (via OCHEM)
- Cc1ccc(C(C)(C)C)cc1S(N)(=O)=O: MP 139 °C (via OCHEM)
- CCCCCCC(=O)OCC(COC(=O)CCCCCC)OC(=O)CCCCCC: MP -32.5 °C (via eChemPortal)
- Cc1nnc(S)n1-c1ccccc1: MP 225 °C (via OCHEM)
- S=c1nc2ncccn2[nH]1: MP 235 °C (via OCHEM)
- O=C(CCl)N1CCSc2ccccc21: MP 54 °C (via OCHEM)
- CCN(CC)S(=O)(=O)c1ccc(CCC(=O)O)cc1: MP 151 °C (via OCHEM)
- NC(=[NH2+])c1ccc(OCCCCCCOc2ccc(C(N)=[NH2+])cc2)cc1.O=S(=O)(O)CC[O-].O=S(=O)(O)CC[O-]: MP 217 °C (via eChemPortal)
- O=Cc1ccc(-c2ccc(Br)cc2)s1: MP 111 °C (via OCHEM)
- Cc1ccc(NC(=O)CCl)c(C)c1: MP 154 °C (via OCHEM)
- O=C(O)c1ccc2c3c(ccc(C(=O)O)c13)C(=O)OC2=O: MP 196 °C (via eChemPortal)
- CCOc1ccccc1OCC(=O)O: MP 45 °C (via OCHEM)
- COc1c(O)c(Cl)c(Cl)c(Cl)c1Cl: MP 122 °C (via QSARDB)
- Cc1c(C(=O)O)cnn1C: MP 170 °C (via OCHEM)
- S=c1[nH]nc(-c2ccncc2)n1-c1ccccc1: MP 291 °C (via OCHEM)
- O=C(O)CN1C(=O)CNC1=O: MP 186 °C (via OCHEM)
- COc1ccccc1Nc1ncccc1C(=O)O: MP 176 °C (via OCHEM)
- O=C1C=CC(=C2NN=CO2)C=C1: MP 211 °C (via OCHEM)
- CN(C)C(=O)c1cccc(N)c1: MP 85 °C (via OCHEM)
- CCSc1ccccc1C(=O)O: MP 136 °C (via OCHEM)
- O=c1[nH]nc(-c2cccs2)o1: MP 117 °C (via OCHEM)
- CC(C)OC(=O)C(C(=O)OC(C)C)=C1SC=CS1: MP 60.5 °C (via OCHEM)
- O=C(O)CCc1cnn(-c2ccccc2)c1: MP 84.5 °C (via OCHEM)
- CC(C)(C)N(NC(=O)c1ccccc1)C(=O)c1cccc(Cl)c1: MP 180 °C (via OCHEM)
- Cc1c(-c2csc(N)n2)sc2ccccc12: MP 171 °C (via OCHEM)
- Clc1cccc(-c2c(Cl)c(Cl)cc(Cl)c2Cl)c1Cl: MP 132 °C (via QSARDB)
- Cc1cccc(NC2=NC(=O)CS2)c1: MP 161 °C (via OCHEM)
- CCOC(=O)Nc1cccc(O)c1: MP 96 °C (via OCHEM)
- CC1=NN(c2ccccc2)C(=O)C1C(=O)c1ccccc1 (configuration not stated): MP 91 °C (via OCHEM)
- NC(=O)c1c(NC(=O)CCl)sc2c1CCCC2: MP 237 °C (via OCHEM)
- Nc1ccc(N2CCNC(=O)C2)c(Cl)c1: MP 148 °C (via OCHEM)
- COC(=O)c1ccc(COc2ccccc2C=O)cc1: MP 91 °C (via OCHEM)
- Fc1ccc(SCc2ccc(Cl)cc2)cc1: MP 36 °C (via PubChem)
- O=C(O)c1cc(-c2cccnc2)nc2ccccc12: MP 324 °C (via OCHEM)
- Cc1ccc(S(=O)(=O)O)cc1.OCC1CN(Cc2ccccc2)CC=C1c1ccc(F)cc1 (configuration not stated): MP 164 °C (via eChemPortal)
- O=S(=O)(c1ccc2c(c1)CCN2)N1CCCCC1: MP 172 °C (via OCHEM)
- Nc1nnc(-c2ccc3c(c2)OCO3)o1: MP 272 °C (via OCHEM)
- Cc1nn(-c2ccccc2)c(Cl)c1CCl: MP 38 °C (via OCHEM)
- Cc1ccc2cc(CCl)c(Cl)nc2c1C: MP 110 °C (via OCHEM)
- Cc1cc2ncc(Br)cn2n1: MP 138 °C (via OCHEM)

4 of these entries, quoted again:

{"smiles": "O=C(O)c1ccc2c3c(ccc(C(=O)O)c13)C(=O)OC2=O", "MP (°C)": "196", "via": "eChemPortal"}
{"smiles": "Cc1cc2ncc(Br)cn2n1", "MP (°C)": "138", "via": "OCHEM"}
{"smiles": "CCN(CC)S(=O)(=O)c1ccc(CCC(=O)O)cc1", "MP (°C)": "151", "via": "OCHEM"}
{"smiles": "Cc1ccc(NC(=O)CCl)c(C)c1", "MP (°C)": "154", "via": "OCHEM"}